Target: T1, human SIRT3 (Homo sapiens, UniProt Q9NTG7)
T1 construct: Truncated hSIRT3 (NAD^+ dependent deacetylase domain, 118–399 aa) was cloned into a pET-28b-SUMO vector; 6xHis-SUMO (N, cleaved yes); made in house; host or cells: E. coli BL21 (DE3)
T1 sequence (Q9NTG7 118-399): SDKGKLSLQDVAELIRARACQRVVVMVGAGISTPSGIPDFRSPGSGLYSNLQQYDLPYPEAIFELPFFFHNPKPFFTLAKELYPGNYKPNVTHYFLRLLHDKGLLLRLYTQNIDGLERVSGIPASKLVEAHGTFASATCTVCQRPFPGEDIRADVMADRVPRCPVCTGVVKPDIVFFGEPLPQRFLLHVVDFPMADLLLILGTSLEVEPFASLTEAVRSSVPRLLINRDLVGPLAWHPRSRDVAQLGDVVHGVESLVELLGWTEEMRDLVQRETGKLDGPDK
Test: Isothermal titration calorimetry, wild-type SIRT3
Type: binding
Details: ITC, 25 °C, absence of NAD^+

## H3K9un: first 17 amino acids from H3 without lactylation and acetylation on lysine 9 followed by two glycines and a biotinylated lysine
  binding to SIRT3 (in words): not to the H3K9un peptide
